The values below come from PubChem BioAssay AID1766 (National Center for Advancing Translational Sciences (NCATS), 2009).

Only a part is listed here, and it is no random draw. Some of these compounds have results that are not shown, active ones among them. Records with an inconclusive call do not appear. Calls of active or inactive are those of the source. The call rests on the fitted dose curve; in most records, active means well fitted curve in the direction sought with a large enough effect in the polarisation (not every such curve was filed as active); inconclusive means small, poorly fitted or top-dose-only effect, or effect the other way, or a change in a side signal; inactive means no such curve, though single readings can be large or run the other way; the % refers to the polarisation.

The nature of this assay: qHTS Assay for Inhibitors Targeting the Menin-MLL Interaction in MLL Related Leukemias: Competition With Fluorescein Labeled MLL-derived Peptide. Further: % of control where 0% means no effect. As to conditions: Fluorescence polarization, fluorescein-MLL peptide displacement from menin; at 61.4 µM (top of the series). For orientation: qHTS replaces the single test concentration by a dilution series.
Consider `CN(C)c1cccc(C(=O)NCC2(N(C)C)CCCCC2)c1`, for which the FP activity change is inactive: -0.195%.

For `CC(C)Oc1ccc(C(=O)NCC2(N(C)C)CCCCC2)cc1`, the FP activity change was inactive: -6.33%.

Consider `O=C(OC1CN2CCC1CC2)C(CO)(c1ccccc1)c1ccccc1` (centres undefined), for which the FP activity change was inactive: 1.89%. In the case of `O=C(NCC1(N2CCCCC2)CCCCC1)c1cccc(Cl)c1`, the FP activity change is inactive: 3.39%. Turning to `COc1cccc(C(=O)NCC2(N3CCCCC3)CCCCC2)c1`, the FP activity change is inactive: 6.03%.

In the case of `COc1ccc(Cl)cc1C(=O)NCC1(N(C)C)CCCCC1`, the FP activity change is inactive: 3.13%.

Turning to `COc1cc(C(=O)NCC2(N(C)C)CCCCC2)c([N+](=O)[O-])cc1OC`, the FP activity change is inactive: 3.74%. Consider `CN(C)C1(CNC(=O)c2ccc(Br)cc2)CCCCC1`, for which the FP activity change is inactive: 0.222%. With `Cc1cc(C(=O)NCC2(N3CCCCC3)CCCCC2)ccc1[N+](=O)[O-]`, the FP activity change is inactive: 1.21%. The value for `CCN1CCCC(OC(=O)C2(O)c3ccccc3C=Cc3ccccc32)C1` (centres undefined) was inactive: 0.687%; that for `O=C(NCC1(N2CCCCC2)CCCCC1)c1cccc(Br)c1` was inactive: -2.8%.

In the case of `COc1ccc(C(=O)NCC2(N(C)C)CCCCC2)cc1`, the FP activity change is inactive: -11.4%. As for `C=CCN1CCN(CCOC(=O)C(O)(c2ccccc2)c2ccccc2)CC1`, the FP activity change was inactive: 0.87%. For the compound `O=C(NCC1(N2CCCCC2)CCCCC1)c1cc(F)c(F)cc1Cl`, the FP activity change was inactive: -2.97%. On to `CN1CCCC(OC(=O)C(O)(c2ccccc2)c2ccccc2)C1` (centres undefined), for which the FP activity change was inactive: -0.0326%.

On to `Cc1ccccc1C(=O)NCC1(N2CCCCC2)CCCCC1`, for which the FP activity change is inactive: 7.58%. `CN(C)C1CCCC1OC(=O)C(O)(c1ccccc1)c1ccccc1` (centres undefined): the FP activity change is inactive: -1.53%. With `CN(C)c1ccc(C(=O)NCC2(N(C)C)CCCCC2)cc1`, the FP activity change is inactive: -1.16%. The value for `Cc1ccc(C(=O)NCC2(N3CCCCC3)CCCCC2)cc1` was inactive: 2.55%; that for `CC(C)N1C(=O)CC2(CCN(CCOC(=O)C(O)(c3ccccc3)c3ccccc3)CC2)C1=O` was inactive: -0.53%. As for `CCN(CC)CC(C)C(C)OC(=O)C(O)(c1ccccc1)c1ccccc1` (centres undefined), the figure is inactive: -1.69%.

Take `COc1cc(SC)ccc1C(=O)NCC1(N(C)C)CCCCC1`: the FP activity change was inactive: 11.2%. For the compound `CN1[C@@H]2CC[C@H]1CC(OC(=O)C(O)(c1ccccc1)c1ccccc1)C2` (some centres undefined), the FP activity change was inactive: -7.43%. The value for `O=C(NCC1(N2CCCCC2)CCCCC1)c1cc([N+](=O)[O-])ccc1Cl` was inactive: 13.4%.
